Source: PubChem BioAssay AID2073 (Sanford-Burnham Center for Chemical Genomics, 2009)
Values joined by “and” are separate entries in the source; they are usually repeats but may differ in a detail not shown here. Identical values can stand only once. Only a part is listed here, and it is no random draw. Entries with a potency or affinity are not part of this list. Active and inactive are the calls of the source. Rule as the data show it: active = inhibition mostly above about 51% (no sharp cut-off); inconclusive = no clear call, values can overlap the other calls; inactive = mostly below about 53%.

Chains of the proteins cited; added tags and fusions are not shown.
UniProt Q00975, whole entry, looked up: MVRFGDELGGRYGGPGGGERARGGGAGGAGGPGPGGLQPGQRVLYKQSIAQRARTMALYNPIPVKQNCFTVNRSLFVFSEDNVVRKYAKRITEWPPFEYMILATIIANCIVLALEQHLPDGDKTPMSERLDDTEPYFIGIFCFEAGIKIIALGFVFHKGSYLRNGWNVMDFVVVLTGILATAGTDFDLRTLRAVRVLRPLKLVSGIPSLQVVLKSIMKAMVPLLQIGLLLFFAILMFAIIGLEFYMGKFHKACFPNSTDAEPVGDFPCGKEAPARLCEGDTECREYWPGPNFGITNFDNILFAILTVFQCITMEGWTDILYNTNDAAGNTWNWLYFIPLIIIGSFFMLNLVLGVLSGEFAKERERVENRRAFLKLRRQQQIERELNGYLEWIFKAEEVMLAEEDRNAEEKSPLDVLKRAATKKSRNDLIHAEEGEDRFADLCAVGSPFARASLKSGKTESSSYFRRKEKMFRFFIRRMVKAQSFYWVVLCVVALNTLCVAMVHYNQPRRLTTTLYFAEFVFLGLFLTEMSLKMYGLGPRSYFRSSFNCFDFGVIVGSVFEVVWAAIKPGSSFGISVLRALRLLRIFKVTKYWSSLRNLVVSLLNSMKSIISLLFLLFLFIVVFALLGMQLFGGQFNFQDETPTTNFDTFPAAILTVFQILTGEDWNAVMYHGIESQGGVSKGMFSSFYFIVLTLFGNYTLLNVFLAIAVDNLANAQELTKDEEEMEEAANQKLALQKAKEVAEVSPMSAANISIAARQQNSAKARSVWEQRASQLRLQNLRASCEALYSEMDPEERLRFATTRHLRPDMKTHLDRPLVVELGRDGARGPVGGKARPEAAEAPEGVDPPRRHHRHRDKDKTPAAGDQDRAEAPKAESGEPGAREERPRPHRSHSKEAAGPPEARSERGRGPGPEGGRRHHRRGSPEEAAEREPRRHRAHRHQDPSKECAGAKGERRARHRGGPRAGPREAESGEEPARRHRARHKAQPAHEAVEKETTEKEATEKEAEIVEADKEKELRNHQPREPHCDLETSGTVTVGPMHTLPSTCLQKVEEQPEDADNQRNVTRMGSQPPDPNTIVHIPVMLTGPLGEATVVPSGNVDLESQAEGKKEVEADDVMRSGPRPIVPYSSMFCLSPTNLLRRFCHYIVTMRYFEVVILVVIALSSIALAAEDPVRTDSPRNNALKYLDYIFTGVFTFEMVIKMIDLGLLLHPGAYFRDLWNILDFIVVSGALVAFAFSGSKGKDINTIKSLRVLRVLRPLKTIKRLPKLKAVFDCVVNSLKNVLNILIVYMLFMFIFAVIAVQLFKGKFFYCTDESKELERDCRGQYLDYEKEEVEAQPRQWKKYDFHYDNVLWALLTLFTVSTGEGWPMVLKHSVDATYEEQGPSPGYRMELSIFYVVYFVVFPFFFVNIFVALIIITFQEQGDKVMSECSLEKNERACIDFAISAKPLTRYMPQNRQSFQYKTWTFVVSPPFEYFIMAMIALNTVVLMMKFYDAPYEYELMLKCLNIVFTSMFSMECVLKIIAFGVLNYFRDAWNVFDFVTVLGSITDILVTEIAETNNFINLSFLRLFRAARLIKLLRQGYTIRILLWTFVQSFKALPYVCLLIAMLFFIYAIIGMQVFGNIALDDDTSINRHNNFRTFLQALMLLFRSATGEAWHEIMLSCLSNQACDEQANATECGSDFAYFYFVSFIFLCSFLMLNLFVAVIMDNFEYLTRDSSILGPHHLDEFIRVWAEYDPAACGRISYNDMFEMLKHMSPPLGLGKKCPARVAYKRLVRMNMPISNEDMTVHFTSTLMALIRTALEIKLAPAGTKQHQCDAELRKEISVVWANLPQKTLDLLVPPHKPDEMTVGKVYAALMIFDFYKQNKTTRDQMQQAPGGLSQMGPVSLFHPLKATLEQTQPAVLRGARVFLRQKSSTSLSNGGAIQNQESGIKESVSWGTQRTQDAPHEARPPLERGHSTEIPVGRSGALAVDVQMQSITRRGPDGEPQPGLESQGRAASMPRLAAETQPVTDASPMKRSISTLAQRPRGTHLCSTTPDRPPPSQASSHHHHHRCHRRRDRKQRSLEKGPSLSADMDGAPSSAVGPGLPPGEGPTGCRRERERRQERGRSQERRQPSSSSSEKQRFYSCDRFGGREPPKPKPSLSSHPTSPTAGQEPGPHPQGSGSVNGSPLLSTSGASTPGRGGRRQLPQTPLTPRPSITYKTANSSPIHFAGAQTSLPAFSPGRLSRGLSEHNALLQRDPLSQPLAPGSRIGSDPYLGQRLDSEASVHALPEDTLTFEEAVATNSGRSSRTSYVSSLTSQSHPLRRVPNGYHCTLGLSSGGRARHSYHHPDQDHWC

Each compound was assayed against Voltage-dependent N-type calcium channel subunit alpha-1B (Homo sapiens) (UniProt Q00975) (assay: disruptors of CaV2.2 binding to Mint1 – biochemical, HTRF (AID 2073)). Conditions: HTRF protein-protein interaction, Mint1-CaV2.2; at 20 µM; hits give high values.

Compound	inhibition
Cc1ccc(N/C(=N/P(=O)(N2CCOCC2)N2CCOCC2)N2CCOCC2)cc1	inactive: -4.4%
NC(=O)c1cc([N+](=O)[O-])cc([N+](=O)[O-])c1N	inactive: 8.3%
Clc1ccc(Cl)c(NC2=NCC(CBr)S2)c1 (configuration not stated)	inactive: -6.6%
CN1CCCC(OC(=O)C(c2ccccc2)c2ccccc2)C1 (configuration not stated)	inactive: -12.1%
Cc1ccc(OP(=O)(Nc2nccs2)Oc2ccc(C)cc2)cc1	inactive: 2.3%
COc1ccccc1OP(=O)(Nc1ccc(C)cn1)Oc1ccccc1OC	inactive: 23.7%
Cc1c2non([O-])c-2c(C)[n+](=O)[n+]1[O-]	inactive: 19.1%
O=C(NC(Sc1ccncn1)C(Cl)(Cl)Cl)c1ccccc1 (configuration not stated)	inactive: -4.7%
Oc1ccccc1CNc1ccccn1	inactive: -2.1%
CC(C)CC(=O)NC(Sc1ccc(Cl)cc1)C(Cl)(Cl)Cl (configuration not stated)	inactive: 30.8%
Nc1cc(N)c2nonc2c1[N+](=O)[O-]	inactive: -6.3%
O=P(Nc1nc2ccc(Cl)cc2s1)(c1ccccc1)c1ccccc1	inactive: 15.3%
O=C(O)c1ccccc1[As](=O)(O)O	inactive: 12%
CC(=O)Nc1ccc([As](=O)(O)O)cc1	inactive: 10.6%
Cc1ccc(NP(=O)(Oc2ccccc2F)Oc2ccccc2F)nc1	inactive: 6.9%
CCOP(=O)(Nc1ccccc1)OCC	inactive: -2.9% and inactive: 3.5%
Cc1cc(SC(NC(=O)c2ccc(F)cc2)C(Cl)(Cl)Cl)ncn1 (configuration not stated)	inactive: 12.5%
O=[N+]([O-])c1cc([N+](=O)[O-])c(CCN2CCOCC2)c([N+](=O)[O-])c1	inactive: 12.5%
Nc1cccc2ccc([As](=O)(O)O)cc12	inactive: 14.8%
CCN(N=Nc1nonc1N)c1nonc1N	inactive: -2.8%
O=C(Nc1cc([As](=O)(O)O)ccc1O)c1ccccc1	inactive: 19.5%
O=[N+]([O-])c1ncn(CCn2ncnc2[N+](=O)[O-])n1	inactive: 7.6%
CC(C)(C)C(=O)NC(Sc1ccncn1)C(Cl)(Cl)Cl (configuration not stated)	inactive: -21.2%
O=C(O)CNc1ccc([As](=O)(O)O)cc1	inactive: 19.8%
O=[N+]([O-])c1cccc(NC2=NCC(CBr)S2)c1 (configuration not stated)	inactive: -6.7%
COc1ccc(C2=NCC(CBr)S2)cc1 (configuration not stated)	inactive: -38.4%

Compound	inhibition
O=[N+]([O-])c1cc([N+](=O)[O-])c(CCNc2ccccc2)c([N+](=O)[O-])c1	inactive: 7%
CCc1nc2c(n1)c1c(non1O)c1c2no[n+]1[O-]	inactive: -8.2%
Cc1ccc(NP(=O)(Oc2ccccc2)Oc2ccccc2)nc1	inactive: 2.8%
CC(=O)N1C2C3N(C(C)=O)C1C1N(C(C)=O)C(C(N1C(C)=O)N3C(C)=O)N2C(C)=O	inactive: -3.8%
O=[N+]([O-])c1cccc2n[nH]nc12	inactive: 3.3%
CCN(/C(=N/P(=O)(N1CCOCC1)N1CCOCC1)N1CCOCC1)c1ccc(OC)cc1	inactive: -1.1%
C[N+]1=C2C=CC=CC=C2SC12C([N+](=O)[O-])=CC([N+](=O)[O-])=C[C-]2[N+](=O)[O-] (configuration not stated)	inactive: 17.9%
Nc1ccc([As](=O)(O)c2ccc(N)cc2)cc1	inactive: 6.1%
CC1CCN(C(=O)Oc2c(Cl)cc(Cl)c3cccnc23)CC1	inactive: -4.7%
CN(C)C(=O)OCCc1n(C)cc[n+]1C	inactive: 5.4%
CC(C)=N/N=C(\N)N[N+](=O)[O-]	inactive: -14.6%
O=P(Nc1nccs1)(c1ccccc1)c1ccccc1	inactive: 0.3%
CC(C)C(=O)NC(Sc1ccccc1)C(Cl)(Cl)Cl (configuration not stated)	inactive: -4.3%
c1nnnn1CCn1cnnn1	inactive: -0.3%
CN(C)C1(CNC(=O)c2ccc(Cl)c(S(N)(=O)=O)c2)CCCCC1	inactive: 2%
O=P(Nc1ccccn1)(c1ccc(Br)cc1)c1ccc(Br)cc1	inactive: 6.1%
C[C@H]1OP(=O)(Oc2ccccc2)[C@H](O)[C@H](O)[C@H]1N=[N+]=[N-] (some centres not stated)	inactive: -4.7%
O=P(Nc1nc2ccccc2s1)(c1ccccc1)c1ccccc1	inactive: -7.5%
O=[As](O)(c1ccccc1)c1ccc(O)cc1	inactive: 6.1%
O=[N+]([O-])c1ncn(CCn2cnc([N+](=O)[O-])n2)n1	inactive: 0.4%
CC(=O)NC(SC(=S)N(C)C)C(Cl)(Cl)Cl (configuration not stated)	inactive: -10.8%
O=[N+]([O-])c1ccc(O)c(/C=N/Nc2ccc([N+](=O)[O-])cc2[N+](=O)[O-])c1	inactive: 3.7%
O=C(OC1CN2CCC1CC2)c1cccc(Cl)c1 (configuration not stated)	inactive: 8.3%
Nc1ccc([As](=O)(O)c2ccc([N+](=O)[O-])cc2)cc1	inactive: -3%
C(Cc1nn[nH]n1)Cc1nn[nH]n1	inactive: -2.4%
CCOC(=O)NC(Sc1ccccc1)C(Cl)(Cl)Cl (configuration not stated)	inactive: -27.1%

Compound	inhibition
Cc1ccc(NP(=O)(Oc2cccc(C)c2)Oc2cccc(C)c2)nc1	inactive: 10.6%
c1ccc(-c2nn[nH]n2)c(-c2nn[nH]n2)c1	inactive: -4.2%
O=C(NC1CCS(=O)(=O)C1)NP(=S)(Oc1ccccc1)Oc1ccccc1 (configuration not stated)	inactive: -13.3%
CCNC(=S)/N=C(\N)N[N+](=O)[O-]	inactive: -4%
CCC(=O)N1C2C3N(C(=O)CC)C1C1N(C(=O)CC)C(C(N1C(=O)CC)N3C(=O)CC)N2C(=O)CC	inactive: -5.5%
O=C(OC1CN2CCC1CC2)c1ccccc1 (configuration not stated)	inactive: 15.8%
Cc1ccc(OP(=O)(Nc2ccccn2)Oc2ccc(C)cc2)cc1	inactive: -15.9%
CC(=O)NC(SC(=S)N(CC(C)C)CC(C)C)C(Cl)(Cl)Cl (configuration not stated)	inactive: -12.1%
COC(=O)c1cc2c(s1)N=C(c1ccccc1)N(C)P2(=O)N1CCOCC1 (configuration not stated)	inactive: 8.1%
CN(C)C(=O)Oc1noc2ccccc12	inactive: 9.3%
O=c1c2cc([N+](=O)[O-])ccc2[nH]c2c([N+](=O)[O-])cc([N+](=O)[O-])cc12	inactive: 1.1%
Cc1ccccc1OP(=O)(Nc1ccccn1)Oc1ccccc1C	inactive: 7.4%
CCOc1ccc(C2=NCC(CBr)S2)cc1 (configuration not stated)	inactive: -14.7%
O=P1(Nc2nc3ccc(Cl)cc3s2)COc2ccccc2O1 (configuration not stated)	inactive: 1.2%
CC(C)(C)C(=O)NC(Sc1ccccc1)C(Cl)(Cl)Cl (configuration not stated)	inactive: -9.1%
C[C@@H]1C=CCP(=O)(Oc2ccccc2)O1 (some centres not stated)	inactive: 7.8%
C[C@H]1OP(=O)(Oc2ccccc2)C[C@@H]2O[C@@H]21 (some centres not stated)	inactive: 10.8%
CC(=O)Nc1ccc(Oc2c([N+](=O)[O-])cc([N+](=O)[O-])cc2[N+](=O)[O-])cc1	inactive: 3.4%
CC(=O)Nc1ccc([As](=O)(O)O)c(O)c1	inactive: 6.7%
O=C(OC1CN2CCC1CC2)c1ccc(Cl)cc1 (configuration not stated)	inactive: 10.1%
CS(=O)(=O)c1ccc(Cl)c(NC(=O)COC(=O)C(O)(c2ccccc2)c2ccccc2)c1	inactive: 8.4%
COc1cc(C(=O)NCC2(N3CCOCC3)CCCCC2)cc(Cl)c1OC(C)C	inactive: 1.2%
O=[As](O)(O)c1cccnc1	inactive: 9.2%
Cc1cccc(OCC(=O)OC2CN3CCC2CC3)c1 (configuration not stated)	inactive: -1.7%
Cc1ccc(NCCc2c([N+](=O)[O-])cc([N+](=O)[O-])cc2[N+](=O)[O-])cc1	inactive: 30.7%
CCCOP(=S)(Nc1nc(N)cc(=O)[nH]1)OCCC	inactive: 10.4%

Compound	inhibition
CCOP(=O)(Nc1cccc2ccccc12)OCC	inactive: 1.3%
COc1cc(C2NCCC3(OCCO3)C2(C)C)cc(OC)c1OC (configuration not stated)	inactive: -9%
O=P(Nc1nccs1)(c1ccccc1)c1nc2ccccc2s1 (configuration not stated)	inactive: 10.1%
O=P(Nc1nccs1)(Oc1ccccc1)Oc1ccccc1	inactive: -5.4%
CCOP1(=S)c2c(C)nn(CCC#N)c2N=C(c2ccccc2F)N1C (configuration not stated)	inactive: 2.5%
CS(=O)(=O)c1cc([N+](=O)[O-])c2no[n+]([O-])c2c1	inactive: -20.4%
O=C(O)COc1ccc([As](=O)(O)O)cc1[N+](=O)[O-]	inactive: 15.4%
Nc1ccccc1[As](=O)(O)c1ccccc1	inactive: 2.3%
NC(=O)Nc1ccc([As](=O)(O)O)cc1	inactive: 3.5%
CCOP1(=S)c2c(C)nn(CCC#N)c2N=C(c2ccc(F)cc2)N1C (configuration not stated)	inactive: -0.8%
CN(C(=O)Cc1ccccc1)[C@@H]1CC[C@]2(CCCO2)C[C@H]1N1CCCC1	inactive: 18%
O=[N+]([O-])c1ccc2c(c1)nnn2O	inactive: -0.7%
Cc1ccc(C(=O)OC2CN3CCC2CC3)cc1 (configuration not stated)	inactive: 12.6%
CC1CCC(C(C)C)C(OP(=O)(Nc2ccccn2)c2ccccc2)C1 (configuration not stated)	inactive: -0.4%
Cc1nn(-c2ccccc2)c2c1P(=O)(N1CCOCC1)N(C)C(c1ccccc1)=N2 (configuration not stated)	inactive: 10.1%
CN(C)C1(CNC(=O)c2ccc(S(C)(=O)=O)cc2)CCCCC1	inactive: 5.4%
O=C(/C=C/c1ccccc1)OC1CN2CCC1CC2 (configuration not stated)	inactive: -5%
O=P1(Nc2ncccn2)COc2ccccc2OC1	inactive: 24.7%
Nc1cccc([As](=O)(O)c2ccccc2)c1	inactive: 4.6%
O=P1(Nc2ccc(Br)cn2)COc2ccccc2OC1	inactive: 0.8%
O=[As](O)(c1cccs1)c1cccs1	inactive: 12.6%
Cc1ccc(OCC(=O)OC2CN3CCC2CC3)cc1 (configuration not stated)	inactive: 5%
CCOP(=O)(NC(=NC(C)c1ccccc1)NC(C)c1ccccc1)OCC (configuration not stated)	inactive: 2.3%
CCC1=CC2Cc3nc4ccc(Cl)cc4c(N)c3C(C1)C2 (configuration not stated)	inactive: 3.7%
